# From the supplement of paper PMC9334596
# The highest values were mostly taken out for another list; the other results follow.
# Test system: mPer2Luc MEF
# Assay: PER2::LUC luminescence relative to vehicle control (fold of vehicle); higher = higher PER2::LUC reporter signal
# Details: 10 µM
# Procedure, shortened: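 The reported values are PER2::LUC luminescence as fold of vehicle control in mouse embryonic fibroblasts carrying the mPer2Luc reporter. Cells were seeded at ~3000 per well in 384-well plates in DMEM with 10% FBS at 37 °C and 5% CO2, and compounds were added at 10 μM 48 h later. ONE-Glo luminescence was read 24 h and 30 h after treatment.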
compound,measurement,setting,value
CC[C@H](C)[C@H](NC(=O)[C@H](CCC(=O)O)NC(=O)C(CCC(=O)O)NC(=O)[C@H](Cc1ccccc1)NC(=O)C(CC(=O)O)NC(=O)CNC(=O)C(CC(N)=O)NC(=O)CNC(=O)CNC(=O)CNC(=O)CNC(=O)[C@@H]1CCCN1C(=O)[C@H](CCCNC(=N)N)NC(=O)[C@@H]1CCCN1C(=O)[C@@H](N)Cc1ccccc1)C(=O)N1CCC[C@H]1C(=O)N[C@@H](CCC(=O)O)C(=O)N[C@@H](CCC(=O)O)C(=O)N[C@@H](Cc1ccc(O)cc1)C(=O)N[C@@H](CC(C)C)C(=O)O (some centres not stated),PER2::LUC luminescence,time after treatment 24 h,1.03
same,PER2::LUC luminescence,time after treatment 30 h,0.923
